Data as given in patent US20030039628A1, “Activation and protection of T-cells (CD4+ and CD8+) using an H2 receptor agonist and other T-cell activating agents” (priority 1998, published 2003).

Tests used:
[1] = system: CD69 expression on T-cells; experiment: CD69 expression on T-cells incubated with or without autologous monocytes (MO), flow cytometry; type: cell-based, human
Experimental: To study the activation characteristics of T-cells in the presence and absence of MO, T-cell activation compounds, H2-receptor agonists, and H2O2 scavengers, peripheral venous blood was obtained as freshly prepared leukopacks from healthy blood donors at the Blood Centre, Sahlgren's Hospital, Göteborg, Sweden. The blood (65 ml) was mixed with 92.5 ml Iscove's medium, 35 ml 6% Dextran (Kabi Pharmacia, Stockholm, Sweden) and 7.5 ml acid citrate dextrose (ACD) (Baxter, Deerfield, Ill.). After incubation for 15 minutes at room temperature, the supernatant was carefully layered onto Ficoll-Hypaque (Lymphoprep, Myegaard, Norway). Mononuclear cells (MNC) were collected at the interface after centrifugation at 380 g for 15 minutes at room temperature, washed twice in PBS and resuspended in Iscove's medium supplemented with 10% human AB^+ serum. During all further separation of cells, the cell suspensions were kept in siliconized test tubes (Vacuette, Greiner, Stockholm).
The MNC were further separated into lymphocyte and monocyte (MO) populations using the counter-current centrifugal elutriation (CCE) technique originally described by Yasaka and co-workers (Yasaka, T. et al., J. Immunol., 127:1515) with modifications as described in Hansson, M., et al. (J. Immunol., 156: 42 (1996); hereby incorporated by reference). […]
Flow cytometry was used in the experiments described below to identify the various sub-populations of T-cells. […] The effects of MO exposure in the presence and absence of histamine and T-cell activation compounds were determined using the CD69 T-cell activation marker. […]
The following protocol was used in experiments reporting the detection of surface antigens of cell populations. […] The cells were washed twice in PBS and resuspended in 500:1 sterile filtered PBS and analyzed by use of flow cytometry on a FACSort with a Lysys II software program (Becton & Dickenson). […] The flow rate was adjusted to <200 cells×s^− and at least 5×10^3 cells were analyzed for each sample, if not otherwise stated. […]

T-cells and NK-cells = experiment: MO-induced cell death (apoptosis) of T-cells and NK-cells, flow cytometry; type: cell-based, human; details: 100 U/ml
Experimental: In this Example, apoptotic morphology of lymphocytes exposed to MO was monitored by staining cells with a dye mix containing acridine orange (10:g/ml; Sigma) and ethidium bromide (10:g/ml; Sigma), both prepared in phosphate buffered saline. One microliter (1:1) of dye mix was added to 25:1 of cells suspension (1-2×10^6/ml) in siliconized test tubes. Thereafter, 10:1 of the cell suspension was placed on a glass slide and immediately counted in a fluorescence microscope (Nikon) under times forty (×40) magnification with qualification of dead, living, apoptotic and non-apoptotic cells. (See Hellstrand, K., et al. J. Immunol., 153: 4940-4947 (1994); Hansson, M., et al., J. Immunol. 156:42-47 (1996)).
Approximately 5-fold higher concentrations of exogenous hydrogen peroxide are required to induce apoptosis in CD3e^+ T-cells than in CD56^+ NK-cells. (See Hansson M., et al., supra). Cell death in lymphocytes was monitored by gating nonviable T-cells or NK-cells after exposure to MO, with and without histamine or catalase. A gate with reduced forward scatter and increased right angle scatter characteristic of apoptosis was employed in these studies. (See Hansson M., et al., supra; Mizgerd J. P., et al., J. Leukoc. Biol. 59:189 (1996); herein incorporated by reference; gate also described in Example 1).

IL-2: cytokine synthesized by T-cells; T-cell activating compound
fraction of CD3e+ cells that acquired CD69 ([1]; IL-2 100 U/ml, 16 hours, absence of MO): Approximately one fourth
CD4+ cells with induced CD69 ([1]; IL-2, absence of MO): approximately 20%
percentage of CD3+ cells displaying the CD69 marker ([1]; with MO, IL-2 alone, absence of catalase): greater than 4%
effect of concomitant treatment on MO-induced cell death and on histamine protection (T-cells and NK-cells): unaffected
